From ChEMBL document CHEMBL5104233, “Advanced approaches of developing targeted covalent drugs” (RSC Med Chem, 2022)

The chains behind the UniProt entries cited, without tags or fusion partners. Residues count along the entry.
UniProt P00533, 25-1210 T790M/L858R limits assumed: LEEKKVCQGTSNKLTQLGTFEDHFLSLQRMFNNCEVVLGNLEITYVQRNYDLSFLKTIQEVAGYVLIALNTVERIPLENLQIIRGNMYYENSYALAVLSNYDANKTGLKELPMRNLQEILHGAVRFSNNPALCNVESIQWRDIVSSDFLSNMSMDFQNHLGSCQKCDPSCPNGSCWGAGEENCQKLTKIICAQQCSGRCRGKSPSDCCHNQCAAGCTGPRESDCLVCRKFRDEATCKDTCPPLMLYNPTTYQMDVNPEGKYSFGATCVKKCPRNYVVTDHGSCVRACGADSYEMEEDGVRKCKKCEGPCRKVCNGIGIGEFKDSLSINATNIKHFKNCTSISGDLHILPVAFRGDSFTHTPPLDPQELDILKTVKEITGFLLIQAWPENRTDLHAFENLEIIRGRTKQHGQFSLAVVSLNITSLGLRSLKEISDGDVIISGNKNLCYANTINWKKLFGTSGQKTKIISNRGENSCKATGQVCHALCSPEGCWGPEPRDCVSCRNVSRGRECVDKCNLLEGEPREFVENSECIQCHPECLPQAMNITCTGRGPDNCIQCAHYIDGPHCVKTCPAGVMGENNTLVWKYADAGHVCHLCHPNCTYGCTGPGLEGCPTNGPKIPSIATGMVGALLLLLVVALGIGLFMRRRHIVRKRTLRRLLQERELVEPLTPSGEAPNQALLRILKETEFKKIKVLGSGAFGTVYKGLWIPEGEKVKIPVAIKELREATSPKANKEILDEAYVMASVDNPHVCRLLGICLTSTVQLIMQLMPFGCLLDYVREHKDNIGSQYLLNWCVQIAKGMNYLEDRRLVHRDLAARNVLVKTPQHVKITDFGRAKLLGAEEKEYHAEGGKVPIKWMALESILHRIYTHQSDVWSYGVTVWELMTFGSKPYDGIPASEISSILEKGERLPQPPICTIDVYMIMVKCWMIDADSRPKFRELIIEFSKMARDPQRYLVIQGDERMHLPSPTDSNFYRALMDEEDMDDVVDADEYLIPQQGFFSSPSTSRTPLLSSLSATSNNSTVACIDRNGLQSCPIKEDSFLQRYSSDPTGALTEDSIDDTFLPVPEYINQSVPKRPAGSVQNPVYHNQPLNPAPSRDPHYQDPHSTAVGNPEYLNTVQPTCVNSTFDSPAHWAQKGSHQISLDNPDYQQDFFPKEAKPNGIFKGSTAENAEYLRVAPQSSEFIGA

Target: Epidermal growth factor receptor (Homo sapiens, UniProt P00533, L858R/T790M)

For `Cc1cc(C(=O)Nc2nc3cccc(Cl)c3n2[C@@H]2CCCCN(C(=O)/C=C/CN(C)C)C2)ccn1` [NAZARTINIB], the IC50 was 31 nM.
